Data on 17 compounds can be found in patent EP2768830B1, “APOPTOSIS-INDUCING AGENTS FOR THE TREATMENT OF CANCER AND IMMUNE AND AUTOIMMUNE DISEASES” (AbbVie Inc., priority 2011, dated 2013).

The chains behind the UniProt entries cited, without tags or fusion partners.
UniProt Q07817, whole entry: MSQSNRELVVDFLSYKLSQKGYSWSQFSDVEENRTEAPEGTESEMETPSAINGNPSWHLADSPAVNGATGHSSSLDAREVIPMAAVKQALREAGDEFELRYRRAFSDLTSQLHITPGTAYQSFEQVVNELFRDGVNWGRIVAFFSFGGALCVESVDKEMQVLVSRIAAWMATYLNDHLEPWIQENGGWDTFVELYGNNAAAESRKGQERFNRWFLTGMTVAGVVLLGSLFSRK

As a reminder, the Ki is the equilibrium dissociation constant of an inhibitor or competing ligand from its target. In general, bioavailability refers to dose-corrected exposure relative to a reference, in per cent. Read a low bioavailability as poor availability.

One series concerns the target T1, GST-Bcl-xL (Homo sapiens, UniProt Q07817). As to the kind of experiment: biochemical.
Conditions: not given
Compound `Cc1c(-c2ccc(N3CCc4cccc(C(=O)Nc5nc6ccccc6s5)c4C3)nc2C(=O)O)cnn1C[C@@H]1CC[C@@H]2C[C@H]1C2(C)C` [Example 85, 6-[8-(1,3-benzothiazol-2-ylcarbamoyl)-3,4-dihydroisoquinolin-2(1H)-yl]-3-(1-{[(1R,2R,5R)-6,6-dimethylbicyclo[3.1.1]hept-2-yl]methyl}-5-methyl-1H-pyrazol-4-yl)pyridine-2-carboxylic acid] had an inhibition constant Ki of 2 nM.

System in the next series: not listed separately
As to the kind of experiment: in vivo. To be noted: rat, in vivo, po, 1 mg/kg.
As for `COCCOC1(Cn2ncc(-c3ccc(N4CCc5cccc(C(=O)Nc6nc7ccccc7s6)c5C4)nc3C(=O)O)c2C)CCCCCC1` [Example 151, 6-[8-(1,3-benzothiazol-2-ylcarbamoyl)-3,4-dihydroisoquinolin-2(1H)-yl]-3-(1-{[1-(2-methoxyethoxy)cycloheptyl]methyl}-5-methyl-1H-pyrazol-4-yl)pyridine-2-carboxylic acid], the bioavailability was found to be 30%.

The series is the same for the next values; noted with them: rat, plasma, po, 5 mg/kg.
`COCCOc1ccccc1Cn1ncc(-c2ccc(N3CCc4cccc(C(=O)Nc5nc6ccccc6s5)c4C3)nc2C(=O)O)c1C` [Example 89, 6-[8-(1,3-benzothiazol-2-ylcarbamoyl)-3,4-dihydroisoquinolin-2(1H)-yl]-3-{1-[2-(2-methoxyethoxy)benzyl]-5-methyl-1H-pyrazol-4-yl}pyridine-2-carboxylic acid] gave a bioavailability of 13%.

The compound `Cc1c(Oc2ccccc2)cccc1-c1ccc(N2CCc3cccc(C(=O)Nc4nc5ccccc5s4)c3C2)nc1C(=O)O` [Example 110, 6-[8-(1,3-benzothiazol-2-ylcarbamoyl)-3,4-dihydroisoquinolin-2(1H)-yl]-3-(2-methyl-3-phenoxyphenyl)pyridine-2-carboxylic acid] came in with a bioavailability of 36%.

Consider `O=C(Nc1nc2ccccc2s1)c1cccc2c1CN(c1ccc(-c3cnn(CC4(C(F)(F)F)CCCCC4)c3)c(C(=O)O)n1)CC2` [Example 74, 6-[8-(1,3-benzothiazol-2-ylcarbamoyl)-3,4-dihydroisoquinolin-2(1H)-yl]-3-(1-{[1-(trifluoromethyl)cyclohexyl]methyl}-1H-pyrazol-4-yl)pyridine-2-carboxylic acid], for which the bioavailability amounted to 23%.

Regarding `Cc1nn(Cc2ccccc2)cc1-c1ccc(N2CCc3cccc(C(=O)Nc4nc5ccccc5s4)c3C2)nc1C(=O)O` [Example 19, 6-[8-(1,3-benzothiazol-2-ylcarbamoyl)-3,4-dihydroisoquinolin-2(1H)-yl]-3-(1-benzyl-3-methyl-1H-pyrazol-4-yl)pyridine-2-carboxylic acid], the bioavailability is 22%.

As for `Cc1c(-c2ccc(N3CCc4cccc(C(=O)Nc5nc6ccccc6s5)c4C3)nc2C(=O)O)cnn1CC1CCC(F)(F)CC1` [Example 73, 6-[8-(1,3-benzothiazol-2-ylcarbamoyl)-3,4-dihydroisoquinolin-2(1H)-yl]-3-{1-[(4,4-difluorocyclohexyl)methyl]-5-methyl-1H-pyrazol-4-yl}pyridine-2-carboxylic acid], the bioavailability was determined as 19%.

Turning to `COCCC(c1ccccc1)n1cc(-c2ccc(N3CCc4cccc(C(=O)Nc5nc6ccccc6s5)c4C3)nc2C(=O)O)cn1` (stereo not drawn) [Example 93, 6-[8-(1,3-benzothiazol-2-ylcarbamoyl)-3,4-dihydroisoquinolin-2(1H)-yl]-3-[1-(3-methoxy-1-phenylpropyl)-1H-pyrazol-4-yl]pyridine-2-carboxylic acid], the bioavailability came to 33%.

For `COCCCC1(Cn2ncc(-c3ccc(N4CCc5cccc(C(=O)Nc6nc7ccccc7s6)c5C4)nc3C(=O)O)c2C)CCCCC1` [Example 97, 6-[8-(1,3-benzothiazol-2-ylcarbamoyl)-3,4-dihydroisoquinolin-2(1H)-yl]-3-(1-{[1-(3-methoxypropyl)cyclohexyl]methyl}-5-methyl-1H-pyrazol-4-yl)pyridine-2-carboxylic acid], the bioavailability is 33%.

Take `O=C(Nc1nc2ccccc2s1)c1cccc2c1CN(c1ccc(-c3cnn(-c4ccccc4)c3)c(C(=O)O)n1)CC2` [Example 23, 6-[8-(1,3-benzothiazol-2-ylcarbamoyl)-3,4-dihydroisoquinolin-2(1H)-yl]-3-(1-phenyl-1H-pyrazol-4-yl)pyridine-2-carboxylic acid]: the bioavailability was 20%.

As for `COCCOC1(Cn2ncc(-c3ccc(N4CCc5cccc(C(=O)Nc6nc7ccccc7s6)c5C4)nc3C(=O)O)c2C)CCCCC1` [Example 101, 6-[8-(1,3-benzothiazol-2-ylcarbamoyl)-3,4-dihydroisoquinolin-2(1H)-yl]-3-(1-{[1-(2-methoxyethoxy)cyclohexyl]methyl}-5-methyl-1H-pyrazol-4-yl)pyridine-2-carboxylic acid], the bioavailability was found to be 40%.

Turning to `Cc1c(CC2CCCCC2)cccc1-c1ccc(N2CCc3cccc(C(=O)Nc4nc5ccccc5s4)c3C2)nc1C(=O)O` [Example 107, 6-[8-(1,3-benzothiazol-2-ylcarbamoyl)-3,4-dihydroisoquinolin-2(1H)-yl]-3-[3-(cyclohexylmethyl)-2-methylphenyl]pyridine-2-carboxylic acid], the bioavailability stood at 14%.

On to `COCCC1(Cn2ncc(-c3ccc(N4CCc5cccc(C(=O)Nc6nc7ccccc7s6)c5C4)nc3C(=O)O)c2C)CCCCCC1` [Example 134, 6-[8-(1,3-benzothiazol-2-ylcarbamoyl)-3,4-dihydroisoquinolin-2(1H)-yl]-3-(1-{[1-(2-methoxyethyl)cycloheptyl]methyl}-5-methyl-1H-pyrazol-4-yl)pyridine-2-carboxylic acid], for which the bioavailability worked out at 50%.

Compound `O=C(Nc1nc2ccccc2s1)c1cccc2c1CN(c1ccc(-c3cn(Cc4ccccc4)nn3)c(C(=O)O)n1)CC2` [Example 122, 6-[8-(1,3-benzothiazol-2-ylcarbamoyl)-3,4-dihydroisoquinolin-2(1H)-yl]-3-(1-benzyl-1H-1,2,3-triazol-4-yl)pyridine-2-carboxylic acid] had a bioavailability of 40%.

In a further series the target is T1, GST-Bcl-xL.
Assay: not given
The settings on record: read-out: TR-FRET binding Bcl-xL Ki. (TR-FRET usually uses a lanthanide donor and a delayed reading to cut background.)
`Cc1c(-c2ccc(N3CCc4cccc(C(=O)Nc5nc6ccccc6s5)c4C3)nc2C(=O)O)cnn1CC1CCCCC1` [Example 43, 6-[8-(1,3-benzothiazol-2-ylcarbamoyl)-3,4-dihydroisoquinolin-2(1H)-yl]-3-[1-(cyclohexylmethyl)-5-methyl-1H-pyrazol-4-yl]pyridine-2-carboxylic acid]: the Ki stood at 0.9 nM.

Turning to `O=C(Nc1nc2ccccc2s1)c1cccc2c1CN(c1ccc(-c3ccn(Cc4ccccc4)c3)c(C(=O)O)n1)CC2` [Example 125, 6-[8-(1,3-benzothiazol-2-ylcarbamoyl)-3,4-dihydroisoquinolin-2(1H)-yl]-3-(1-benzyl-1H-pyrrol-3-yl)pyridine-2-carboxylic acid], the Ki was determined as 0.3 nM.

In the case of `CN(c1cccc(-c2ccc(N3CCc4cccc(C(=O)Nc5nc6ccccc6s5)c4C3)nc2C(=O)O)c1C#N)S(=O)(=O)C1CCCCC1` [Example 181, 6-[8-(1,3-benzothiazol-2-ylcarbamoyl)-3,4-dihydroisoquinolin-2(1H)-yl]-3-{2-cyano-3-[(cyclohexylsulfonyl)(methyl)amino]phenyl}pyridine-2-carboxylic acid], the Ki was less than 0.1 nM.

As for `Cc1c(CC2CCCCC2)cccc1-c1ccc(N2CCc3cccc(C(=O)Nc4nc5ccccc5s4)c3C2)nc1C(=O)O` [Example 107, 6-[8-(1,3-benzothiazol-2-ylcarbamoyl)-3,4-dihydroisoquinolin-2(1H)-yl]-3-[3-(cyclohexylmethyl)-2-methylphenyl]pyridine-2-carboxylic acid], the Ki stood at 0.2 nM.
